Reference: PubChem BioAssay (NCI)
Where “and” joins values, the source holds several entries; their conditions need not be identical. Equal values may be shown once. The list shows a part of the results, in another mix than the full data.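 Treatment: one concentration, 48 hours, 96-well format. Scoring: percent growth, with anything below 10 considered active.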 Calls of active or inactive are those of the source.

Legend:
Test in all cases: NCI-60 one-dose screen, 48 h (100 = growth as untreated, 0 = no growth, -100 = all killed)
Details in all cases: 10 µM
[1] = test system: HCT-15 colon
[2] = test system: HT29 colon
[3] = test system: SNB-75 CNS
[4] = test system: SNB-19 CNS
[5] = test system: U251 CNS
[6] = test system: PC-3 prostate
[7] = test system: SK-MEL-5 melanoma
[8] = test system: UACC-62 melanoma
[9] = test system: LOX IMVI melanoma
[10] = test system: SK-MEL-28 melanoma

Measured: growth

COc1c(C)cc(N(CCCl)CCCl)c2ccccc12
inactive: [1] 70% | [2] 65.3% | [3] 60.2% | [4] 59.6% | [5] 34.8% | [6] 64.9% | [7] 77.7% | [8] 63.9% | [9] 38.4% | [10] 86.4%

N#CC(C#N)=Cc1ccc(N(CCCl)CCCl)cc1
inactive: [1] 84.4% | [2] 87.1% | [3] 86.3% | [4] 99.1% | [5] 81.4% | [6] 71.3% | [7] 92.3% | [8] 59.5% | [9] 84.8% | [10] 108%

Cc1ccc2oc(=O)cc(CN(CCCl)CCCl)c2c1
inactive: [1] 89.4% | [2] 91.3% | [3] 75.3% | [4] 96.1% | [5] 96.7% | [6] 84.5% | [7] 95.1% | [8] 83% | [9] 95.7% | [10] 101%

COc1ccc(N)cc1CN(CCCl)CCCl
inactive: [1] 81.9% | [2] 66.5% | [3] 73.5% | [4] 87% | [5] 64.1% | [6] 57.7% | [7] 94% | [8] 53% | [9] 51.4% | [10] 101%

CCCSP(=O)(CCl)N(CCCl)CCCl (stereo not given)
inactive: [1] 93.4% | [2] 97.6% | [3] 77.6% | [4] 98.4% | [5] 95.1% | [6] 91% | [7] 99.3% | [8] 105% | [9] 102% | [10] 103%

C1CCNCC1.O=C(O)C(O)c1ccc(N(CCCl)CCCl)cc1 (stereo not given)
inactive: [1] 98.7% | [2] 102% | [3] 119% | [4] 95.6% | [5] 100% | [6] 86% | [7] 97% | [8] 94.4% | [9] 95.9% | [10] 112%

Cc1ccccc1NC1(C#N)CCN(Cc2ccccc2)CC1
inactive: [1] 101% | [2] 116% | [3] 95.7% | [4] 109% | [5] 106% | [6] 88.4% | [7] 101% | [8] 107% | [9] 96.1% | [10] 103%

Cc1cccc(C(=O)N(CCCl)CCCl)c1
inactive: [1] 91.2% | [2] 100% | [3] 86.5% | [4] 104% | [5] 98.9% | [6] 91.8% | [7] 99% | [8] 103% | [9] 103% | [10] 113%

N#CC(C#N)=Cc1ccc2c(c1)OCO2
inactive: [1] 94.5% and 97.4% | [2] 119% and 109% | [3] 110% and 96.1% | [4] 101% and 97.7% | [5] 100% and 97% | [6] 101% and 96.1% | [7] 91.1% and 97.2% | [8] 107% and 97.3% | [9] 94.9% and 97.5% | [10] 109% and 102%

CCOC(=O)N1CCC(=O)CC1
inactive: [1] 97.1% | [2] 102% | [3] 99.2% | [4] 94.9% | [5] 97.4% | [6] 95.6% | [7] 102% | [8] 96.1% | [9] 96.3% | [10] 102%

O=C(O)Cc1c[nH]c2ccc(N(CCCl)CCCl)cc12
inactive: [1] 98.6% | [2] 101% | [3] 101% | [4] 96.9% | [5] 107% | [6] 86.5% | [7] 101% | [8] 86.3% | [9] 91.6% | [10] 116%

CC(C)NP(=O)(F)NC(C)C
inactive: [1] 109% | [2] 109% | [3] 101% | [4] 104% | [5] 95.1% | [6] 97.2% | [7] 102% | [8] 104% | [9] 98.5% | [10] 113%

[O-][n+]1onc(-c2ncon2)c1-c1ncon1
inactive: [1] 26% | [2] 105% | [3] 83.5% | [4] 104% | [5] 108% | [6] 102% | [7] 98.9% | [8] 99% | [9] 52.2% | [10] 106%

O=C1C(=O)N(CN(CCCl)CCCl)c2ccccc21
inactive: [1] 96.7% | [2] 100% | [3] 89.3% | [4] 109% | [5] 98.1% | [6] 95.9% | [7] 105% | [8] 100% | [9] 96.6% | [10] 115%

ClCCN(CCCl)Cc1ccc2c(c1)OCO2
inactive: [1] 86.2% | [2] 77.3% | [3] 72.9% | [4] 90% | [5] 67.2% | [6] 68.7% | [7] 82.8% | [8] 68.7% | [9] 71.1% | [10] 105%

CCOc1ccc(N(CCCl)CCCl)cc1
inactive: [1] 72% | [2] 73.3% | [3] 61.5% | [4] 82.9% | [5] 52.1% | [6] 70.4% | [7] 77.9% | [8] 60.9% | [9] 49.8% | [10] 89.5%

O=C1CCN(Cc2ccccc2)CC1
inactive: [1] 112% | [2] 104% | [3] 97.8% | [4] 98.7% | [5] 101% | [6] 87% | [7] 99.8% | [8] 99.7% | [9] 98.9% | [10] 118%

Cc1ccc(C(=O)N(CCCl)CCCl)cc1
inactive: [1] 94% | [2] 102% | [3] 82.4% | [4] 100% | [5] 98.2% | [6] 97.7% | [7] 99.1% | [8] 101% | [9] 92.9% | [10] 97%

Cc1ccccc1CN(CCCl)CCCl
inactive: [1] 102% | [2] 94.6% | [3] 90.4% | [4] 101% | [5] 93.3% | [6] 95.1% | [7] 81.3% | [8] 97.4% | [9] 79.9% | [10] 109%

Cc1ccc(NC2(C(N)=O)CCN(Cc3ccccc3)CC2)cc1
inactive: [1] 111% | [2] 100% | [3] 87% | [4] 103% | [5] 99.4% | [6] 90.8% | [7] 99.5% | [8] 97.2% | [9] 98.7% | [10] 109%

CCNC(=O)Cc1ccc(N(CCCl)CCCl)cc1
inactive: [1] 77.8% | [2] 82.4% | [3] 92.4% | [4] 88.2% | [5] 70% | [6] 80.9% | [7] 85.7% | [8] 76.5% | [9] 58.1% | [10] 101%

Cn1c(=O)[nH]cc(N(CCCl)CCCl)c1=O
inactive: [1] 89.6% | [2] 91.1% | [3] 86.3% | [4] 101% | [5] 73.2% | [6] 91.9% | [7] 97.5% | [8] 86.9% | [9] 67% | [10] 108%

NC(=O)C1(Nc2ccccc2)CCN(Cc2ccccc2)CC1
inactive: [1] 105% | [2] 108% | [3] 86.2% | [4] 107% | [5] 109% | [6] 94.4% | [7] 98.2% | [8] 103% | [9] 101% | [10] 108%

COc1ccc(C(=O)O)cc1N(CCCl)CCCl
inactive: [1] 106% | [2] 101% | [3] 83.5% | [4] 104% | [5] 96% | [6] 97.8% | [7] 97.6% | [8] 113% | [9] 81.1% | [10] 113%

Fc1cccc(CBr)c1
inactive: [1] 102% | [2] 100% | [3] 103% | [4] 113% | [5] 106% | [6] 104% | [7] 107% | [8] 96% | [9] 102% | [10] 112%

COc1cccc(N(CCCl)CCCl)c1OC
inactive: [1] 75.8% | [2] 72.4% | [3] 79.8% | [4] 91.7% | [5] 67.6% | [6] 69.2% | [7] 84% | [8] 65.4% | [9] 81.6% | [10] 102%

CCC(C)(C)c1ccc(O)c(CN(CCCl)CCCl)c1
inactive: [1] 101% | [2] 110% | [3] 96.1% | [4] 99% | [5] 102% | [6] 96.2% | [7] 105% | [8] 103% | [9] 95.5% | [10] 109%

ClCCN1CCN(CCCl)CC1
inactive: [1] 98.3% | [2] 105% and 99.3% | [3] 82.6% and 75.2% | [4] 97.5% and 105% | [5] 95.9% | [6] 88.4% and 96.9% | [7] 102% and 101% | [8] 102% and 96.5% | [9] 97.6% and 50.6% | [10] 107% and 112%

Oc1ccc(N(CCCl)CCCl)cc1
inactive: [1] 79% | [2] 76.3% | [3] 99.4% | [4] 97.2% | [5] 78.6% | [6] 73.2% | [7] 94.3% | [8] 81% | [9] 69.5% | [10] 111%
